Results on 23 compounds are retold here after ChEMBL document CHEMBL1125665, “Quaternary salts of 2-[(hydroxyimino)methyl]imidazole. 5. Structure-activity relationships for side-chain nitro-, sulfone-, amino-, and aminosulfonyl-substituted analogues for therapy against anticholinesterase intoxication” (1991).

The target in test [1] is T1, Acetylcholinesterase (Mus musculus) (UniProt P21836).
T1 sequence (whole entry): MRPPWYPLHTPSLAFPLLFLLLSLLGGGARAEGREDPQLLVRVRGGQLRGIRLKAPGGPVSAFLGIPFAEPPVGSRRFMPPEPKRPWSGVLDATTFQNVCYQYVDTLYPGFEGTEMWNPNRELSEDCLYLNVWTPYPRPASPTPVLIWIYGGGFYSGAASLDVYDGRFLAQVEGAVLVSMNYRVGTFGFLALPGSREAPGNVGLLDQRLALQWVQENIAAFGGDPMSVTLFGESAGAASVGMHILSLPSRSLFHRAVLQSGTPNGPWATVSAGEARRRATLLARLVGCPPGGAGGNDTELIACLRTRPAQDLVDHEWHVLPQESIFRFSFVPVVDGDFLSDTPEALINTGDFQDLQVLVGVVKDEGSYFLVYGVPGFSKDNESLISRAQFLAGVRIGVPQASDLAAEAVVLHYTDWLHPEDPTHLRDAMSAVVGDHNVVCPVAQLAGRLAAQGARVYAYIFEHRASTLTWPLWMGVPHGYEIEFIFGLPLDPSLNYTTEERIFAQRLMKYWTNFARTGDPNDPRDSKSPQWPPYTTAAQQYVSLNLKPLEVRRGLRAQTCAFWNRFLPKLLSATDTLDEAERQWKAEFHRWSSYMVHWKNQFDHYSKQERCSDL
Kind of test: Antidotal activity measured in mice exposed to tabun; activity expressed as the no. of survivors at 24 hr out of population of 10 mice each exposed intramuscularly at the dose 1/16 of 2LD50 of the compound.

Test [2] concerns the target T1, Acetylcholinesterase (Mus musculus). Kind of test: Antidotal activity measured in mice exposed to soman; activity expressed as the no. of survivors at 24 hr out of population of 10 mice exposed intramuscularly at a dose 1/16 of 2LD50 of the compound.
For test [3] the target is unchanged. Kind of test: antidotal activity measured in mice exposed to soman; activity expressed as the no. of survivors at 24 hr out of population of 10 mice exposed intramuscularly at the dose 1/4 of 2LD50 of the compound.

“And” between values parts separate entries of the source, which are not always exact repeats. Identical values can stand only once.

In the case of `CC(OCn1cc[n+](C)c1/C=N/O)C(C)S(C)(=O)=O` (centres undefined), the No. of survivors in test [1] is 10 and 9; in test [2] it was 7 and 9; in test [3] it was 7 and 6.

Regarding `C[n+]1ccn(CCCS(C)(=O)=O)c1/C=N/O`, the No. of survivors was determined as 1 in test [1], 2 in test [2] and 6 in test [3].

`C[n+]1ccn(CCNS(=O)(=O)c2ccccc2)c1/C=N/O`: the No. of survivors stood at 10 in test [1], 10 in test [2] and 7 in test [3].

On to `Cc1n(CCCN(C)S(=O)(=O)C(F)(F)F)cc[n+]1C`, for which the No. of survivors in test [1] is 0; in test [2] it was 4; in test [3] it was 5.

As to `C[n+]1ccn(COCCS(C)(=O)=O)c1/C=N/O`, the No. of survivors in test [1] worked out at 1; in test [2], 9; in test [3], 6.

On to `C[n+]1ccn(CCCCCNS(=O)(=O)C(F)(F)F)c1/C=N/O`, for which the values for the No. of survivors in test [1], in test [2] and in test [3] were 1, 0 and 0, respectively.

For the compound `C[n+]1ccn(CCCN(Cc2ccccc2)S(=O)(=O)C(F)(F)F)c1/C=N/O`, the values for the No. of survivors in test [1], in test [2] and in test [3] were 0, 4 and 5, respectively.

Take `C[n+]1ccn(COCCS(=O)(=O)c2ccccc2)c1/C=N/O`: the No. of survivors in test [1] was 0; in test [2] it was 4; in test [3] it was 8.

In the case of `CC(C)N(CCn1cc[n+](C)c1/C=N/O)C(C)C`, the No. of survivors was determined as 0 in test [1], 0 in test [2] and 1 in test [3].

With `C[n+]1ccn(CCN(Cc2ccccc2)S(=O)(=O)C(F)(F)F)c1/C=N/O`, the No. of survivors in test [1] is 0; in test [2], 3; in test [3], 4.

As for `C[n+]1ccn(CCN2CCCCC2)c1/C=N/O`, the No. of survivors is 0 in test [1], 1 in test [2] and 7 in test [3].

As to `C[n+]1ccn(COCC(C)(C)[N+](=O)[O-])c1/C=N/O`, the No. of survivors in test [1] came out at 3; in test [2], 8; in test [3], 6.

As to `CCN(CCCn1cc[n+](C)c1/C=N/O)S(=O)(=O)c1ccccc1`, the No. of survivors is 6 in test [1], 0 in test [2] and 1 in test [3].

On to `CCS(=O)(=O)CCOCn1cc[n+](C)c1/C=N/O`, for which the No. of survivors turned out to be 3 in test [1], 4 in test [2] and 8 in test [3].

With `C[n+]1ccn(CCN(Cc2ccccc2)S(=O)(=O)c2ccccc2)c1/C=N/O`, the No. of survivors in test [1] came out at 0; in test [2], 5; in test [3], 1.

Consider `CCN(CCn1cc[n+](C)c1/C=N/O)S(=O)(=O)C(F)(F)F`, for which the No. of survivors in test [1] is 8; in test [2], 10; in test [3] it was 5.

For `C[n+]1ccn(CCCCS(C)(=O)=O)c1/C=N/O`, the figures for the No. of survivors in test [1], in test [2] and in test [3] were 5, 1 and 8, respectively.

As to `C[n+]1ccn(COCCS(C)(=O)=O)c1C(N)=O`, the figures for the No. of survivors in test [1], in test [2] and in test [3] were 2, 1 and 7, respectively.

On to `C[n+]1ccn(COCCCS(C)(=O)=O)c1/C=N/O`, for which the No. of survivors in test [1] is 5; in test [2], 9; in test [3], 10.

Turning to `C[n+]1ccn(CCNS(=O)(=O)C(F)(F)F)c1/C=N/O`, the No. of survivors came to 0 in test [1], 3 in test [2] and 7 in test [3].

On to `CC(CCC[N+](=O)[O-])OCn1cc[n+](C)c1/C=N/O` (centres undefined), for which the No. of survivors in test [1], in test [2] and in test [3] was 0 in each case.

As to `CC(OCn1cc[n+](C)c1/C=N/O)C(C)(C)[N+](=O)[O-]` (centres undefined), the No. of survivors is 7 in test [1], 5 in test [2] and 8 in test [3].

For the compound `CCN(CCCn1cc[n+](C)c1/C=N/O)S(=O)(=O)C(F)(F)F`, the results for the No. of survivors in test [1], in test [2] and in test [3] were 2, 4 and 7, respectively.
